# Yeast mating assay B: variants of the scFv Ab-14

Source: Li et al. 2023 (doi:10.1038/s41467-023-39022-2), MIT Lincoln Laboratory and A-Alpha Bio; data file from the FLAb repository.

The target is the same throughout: PDVDLGDISGINAS, from the HR2 region of SARS-CoV-2 spike.

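The parent was found by panning a naive human phage display library on the peptide. The variants were designed computationally from a first round of random CDR variants and then made and measured. Several design methods are mixed in this list. AlphaSeq pools MATa yeast showing the antibodies with MATalpha yeast showing the peptide. After mating in shaken culture at 30 °C for 16 h, diploids were selected and their barcode pairs sequenced. Scores were corrected for input abundance and mapped to Kd with protein pairs of known affinity run in the same pool. There are six technical replicates.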

Ab-14 is the parent antibody, in scFv form: VH, then the linker GGGGSGGGGSGGGGS, then VL. The heavy chain is unchanged in all variants.
VH: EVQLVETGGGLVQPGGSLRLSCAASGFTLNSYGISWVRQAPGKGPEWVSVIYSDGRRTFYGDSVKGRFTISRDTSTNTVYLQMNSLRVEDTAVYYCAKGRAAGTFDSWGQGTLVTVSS
VL: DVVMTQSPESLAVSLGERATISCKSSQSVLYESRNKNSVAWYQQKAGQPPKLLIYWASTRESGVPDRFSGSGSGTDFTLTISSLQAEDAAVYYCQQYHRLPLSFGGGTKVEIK

Variants are written as CDR1, CDR2 and CDR3 of the light chain (limits as in the source). Parent: KSSQSVLYESRNKNSVA, WASTRES, QQYHRLPLS. Values are log10 of the apparent Kd in nM; lower means stronger binding. A mean of the replicates is given; it leaves out those without a signal. Where no diploid with the target was found in that replicate, the entry reads "ND": below detection, most likely a poor binder, though not proof of it.

| CDR-L1 | CDR-L2 | CDR-L3 | log10 Kd, replicates | mean, log10 nM |
|---|---|---|---|---|
| KLSQSVPYESRNKNSVA | NANTRES | QQYHRLPLS | -0.27 / -0.37 / -0.19 / -0.42 / -0.40 / -0.09 | -0.29 |
| AFSESANYGQRDSNAIA | GADVVEK | QQYWRLPLT | 0.37 / 0.01 / 0.18 / 0.05 / -0.01 / 0.11 | 0.12 |
| SLAYTQHFGQAGGKAVA | EVQMREQ | QQYFRLPLG | 1.34 / 1.61 / 0.81 / 1.56 / 0.91 / 1.54 | 1.30 |
| RISQIIQENVRQYNAVA | NGMTRNA | QHYSRLPLE | 0.42 / 0.36 / 0.22 / 0.37 / 0.25 / 0.38 | 0.33 |
| KSSQSVSYESRNKNSVA | WASTRES | QQYHGLPLS | ND / ND / ND / ND / ND / ND | ND |
| SVQVYTENFMERGQNIA | DASAKTV | QQYDRLPLA | ND / 0.09 / 0.35 / 0.83 / 0.15 / 0.33 | 0.35 |
| RIDDYPNMLGKNKESIA | EAAVTLT | QQYARLPLS | 1.10 / 0.81 / 0.48 / 0.99 / 0.72 / 0.84 | 0.82 |
| KYSQSYLYESRNKNSVA | NASTRES | QQYHRLPLS | 0.36 / 0.26 / 0.19 / 0.05 / 0.28 / 0.34 | 0.25 |
| KSSQHVLYENRNKNSVA | WASTRFS | QQYHRLPLS | ND / ND / ND / 1.80 / ND / ND | 1.80 |
| KVVQSHDYESRNKNSVA | HASTRCS | QDYHRLPLS | 0.69 / 0.60 / 0.36 / 0.51 / 0.55 / 0.83 | 0.59 |
| TVSQVNGMLSHNKNSVA | DMNTRGS | QQYDRLPLS | 0.46 / 0.49 / 0.49 / 0.36 / 0.26 / 0.44 | 0.42 |
| KSSQSVVYDSRNKNSVA | WATTRES | QQYHRLPLS | 2.42 / 1.33 / 1.68 / 1.21 / 1.26 / 1.68 | 1.60 |
| HVSESVFAQSKMRNSVA | ENSTRES | QQYDRLPLS | 1.13 / 0.71 / 0.79 / 0.97 / 1.09 / 0.97 | 0.94 |
| KLSISYLYESRNENSVA | EASTREQ | QQYHRLPLS | -0.54 / -0.18 / -0.62 / -0.58 / -0.52 / -0.17 | -0.44 |
| KSSQSVLHESRNDNSVA | GASTRES | QQYHRLPLS | 0.36 / 0.26 / 0.17 / 0.05 / 0.11 / 0.33 | 0.21 |
| KSSPSTLYESRNKNSVA | NASTRES | QQYHRLPLS | ND / ND / ND / ND / ND / ND | ND |
| KSSQSVLEESRNKNSVA | NASTRES | QQYHRLPLS | 0.73 / 0.56 / 0.23 / 0.27 / 0.46 / 0.33 | 0.43 |
| KVLQSVLYESRNKNSVA | NASTRES | QQYHRLPLS | -0.22 / -0.17 / -0.39 / -0.42 / -0.32 / -0.23 | -0.29 |
| IVSQMMLWGMHVKNSIA | EAQTRLN | QQYDRLPLF | ND / ND / ND / ND / ND / ND | ND |
| MISQLMNMGTFAINSVA | QATIRNS | QQYDRLPLT | 1.51 / 1.35 / 1.93 / 2.53 / 1.59 / 2.54 | 1.91 |
| MVTQMAMTGMKNKRSVA | NAEMRED | QQYHRLPLI | 0.25 / 0.64 / 0.35 / 0.30 / 0.36 / 0.28 | 0.36 |
| KSSISYLPESRNKNSVA | EASTRES | QQYHRLPLS | 0.50 / 0.40 / -0.41 / -0.19 / -0.36 / 0.49 | 0.07 |
| KLSQSMEYESRNSKSVA | HASTRVS | QQYHRLPLS | 0.31 / -0.04 / -0.22 / -0.31 / 0.06 / 0.06 | -0.02 |
| KSSQSHLPESRNKNSVA | DASTRES | QQYHRLPLS | 0.17 / -0.05 / -0.04 / -0.11 / -0.17 / 0.30 | 0.02 |
| NITYAATQLQRIDSNVA | AGSARCR | QQYYRLPLS | 2.02 / 0.60 / 0.79 / 0.49 / 0.55 / 0.51 | 0.83 |
| KFEQSVLYESRNKNSVA | NASQRES | QQYHRLPLS | 0.22 / -0.21 / 0.04 / -0.01 / -0.06 / -0.02 | -0.01 |
| KMEQGNLYESRNKNSVA | GASVRES | QQYHRLPLS | -0.06 / -0.32 / -0.55 / -0.27 / -0.38 / -0.41 | -0.33 |
| KFSQLWMYEQRNKNSVA | QASQRES | QQYHRLPLS | -0.06 / -0.26 / -0.39 / -0.53 / -0.45 / -0.18 | -0.31 |
| KSTQSVLYESLNKNSVA | WASTKES | QQYHRLPLS | ND / ND / ND / ND / 3.04 / 2.20 | 2.62 |
| LLSQSVLYESRNAKSVA | WASTRES | QQYHRLPLS | 1.08 / 1.60 / 1.52 / ND / ND / 1.63 | 1.45 |
| QLSMITGHMSVSKNNVA | EMETREN | QQYDRLPLS | 0.31 / 0.45 / 0.48 / 0.39 / 0.12 / 0.20 | 0.33 |
| QLQYAPGESLRSTQSIA | DVNIKDM | QQYARLPLS | 0.70 / 0.48 / 0.51 / 0.17 / 0.57 / 0.59 | 0.51 |
| KLSQSELYESRNKNSVA | NASCRES | QQYHRLPLS | -0.01 / -0.21 / -0.27 / -0.40 / -0.34 / -0.02 | -0.21 |
| KLSISGLHQSIDKKSIA | ERSTREN | QQYHRLPLS | 0.74 / 0.57 / 0.59 / 0.60 / 0.59 / 0.67 | 0.63 |
| KSSQSVLYESRNKNSVA | NASTRES | QQYHMLPLS | 0.91 / 0.76 / 0.62 / 0.47 / 0.42 / 0.75 | 0.66 |
| KLTEQDFLGERRQSNIA | AGVMTSY | QQYHHLPLM | 0.05 / 0.96 / 0.61 / 1.72 / 0.38 / 0.60 | 0.72 |
| SLTSHEEEIEGAEASVA | NAMMLES | QQYHRLPLM | 0.68 / 0.32 / 0.59 / 0.41 / 0.81 / 0.45 | 0.54 |
| MVNGIMDHLSKNTNNVA | ETTTREE | QQYDRLPLV | 0.76 / 0.52 / 0.86 / 0.64 / 0.54 / 0.50 | 0.64 |
| KLQQSWLYESRMKNSVA | NASTRES | QQYHRLPLS | 0.31 / 0.47 / 0.49 / 0.16 / 0.23 / 0.37 | 0.34 |
| KLSQSVPYESRNKNSVA | NASTRLS | QQYHRLPLS | -0.22 / -0.09 / -0.26 / -0.11 / -0.06 / -0.03 | -0.13 |
| KYSQGVLYESRNKNSVA | GASTRES | QQYHRLPLS | 0.25 / 0.12 / -0.03 / -0.16 / 0.10 / 0.26 | 0.09 |

Again, the first 3 entries without any signal:

{"CDR-L1": "KSSQSVSYESRNKNSVA", "CDR-L2": "WASTRES", "CDR-L3": "QQYHGLPLS", "log10 Kd, replicates": "ND / ND / ND / ND / ND / ND", "mean, log10 nM": "ND"}
{"CDR-L1": "KSSPSTLYESRNKNSVA", "CDR-L2": "NASTRES", "CDR-L3": "QQYHRLPLS", "log10 Kd, replicates": "ND / ND / ND / ND / ND / ND", "mean, log10 nM": "ND"}
{"CDR-L1": "IVSQMMLWGMHVKNSIA", "CDR-L2": "EAQTRLN", "CDR-L3": "QQYDRLPLF", "log10 Kd, replicates": "ND / ND / ND / ND / ND / ND", "mean, log10 nM": "ND"}

The authors' rule: three or more of the six replicates give a measured affinity, fewer mean a poor binder. Empty control strains, which show no peptide, gave a signal in 4% of pairings with all light chain designs; the median was 2.64 and 95% of these signals were weaker than 1.59. No background was subtracted. The parent sequence was in this pool as ten entries: three were never detected, three once, and four in most replicates, with averages from 0.34 to 2.37. The range of this assay differs from that of the first round, and the authors advise against merging the two.